Results taken from patent publication US20080227813A1, “Pharmaceutical compositions and methods for treating diseases associated with neurodegeneration” (priority 2006, published 2008).

System: HSF-1, Hsp70 and Hsp90
Assay: HSF-1 activation and Hsp70/Hsp90 expression in spinal cord of mSOD1(G93A) mice
Details: lumbar spinal cord, 120 days of age, 10 mg/kg ip daily

[O-][n+]1cccc(/C(Cl)=N/OC[C@H](O)CN2CCCCC2)c1 [Compound I, N-[2-hydroxy-3-(1-piperidinyl)-propoxy]-pyridine-1-oxide-3-carboximidoyl chloride]
intensity of Hsp70 and Hsp90 immunoreactivity in motor neurons: clear increase
